1 compound from ChEMBL document CHEMBL1129297 (J Med Chem, 1996) can be followed below.

Sequences of proteins named here, by UniProt entry; tags and fusion partners are left off. A change or cut given only in a name is not applied to a line headed by its entry.
UniProt P28221: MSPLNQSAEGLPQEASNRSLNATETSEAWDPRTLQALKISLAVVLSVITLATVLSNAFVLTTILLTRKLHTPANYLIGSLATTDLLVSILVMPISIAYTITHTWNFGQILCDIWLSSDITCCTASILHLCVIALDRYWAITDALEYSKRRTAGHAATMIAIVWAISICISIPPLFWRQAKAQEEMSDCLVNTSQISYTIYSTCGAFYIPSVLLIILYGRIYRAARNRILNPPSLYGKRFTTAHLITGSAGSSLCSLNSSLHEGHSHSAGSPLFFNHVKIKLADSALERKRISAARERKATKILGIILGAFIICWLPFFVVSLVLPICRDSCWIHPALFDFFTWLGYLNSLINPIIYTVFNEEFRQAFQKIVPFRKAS

The experiment addresses 5-hydroxytryptamine receptor 1D (Homo sapiens, UniProt P28221). As to the kind of experiment: Selectivity towards 5-hydroxytryptamine 1D receptor beta to that of 5-hydroxytryptamine 1D receptor alpha.

As usually defined, the Ki is the equilibrium dissociation constant of an inhibitor or competing ligand from its target. As for `COc1ccc2[nH]cc(CCN)c2c1` [5-METHOXYTRYPTAMINE], the affinity corresponds to a Ki of 5.4 nM.
